From PubChem BioAssay AID652197 (Broad Institute, 2013)
The entries are a selection whose mix differs from that of the whole data set. Calls of active or inactive are those of the source.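 Rule for the calls: active = mean replicate inhibition of at least 30%, or all replicates individually reaching that 30% level; inactive = mean below 30% and not every replicate reaching it.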

Sequences of proteins named here, by UniProt entry; tags and fusion partners are left off.
UniProt Q9NZ08, whole entry: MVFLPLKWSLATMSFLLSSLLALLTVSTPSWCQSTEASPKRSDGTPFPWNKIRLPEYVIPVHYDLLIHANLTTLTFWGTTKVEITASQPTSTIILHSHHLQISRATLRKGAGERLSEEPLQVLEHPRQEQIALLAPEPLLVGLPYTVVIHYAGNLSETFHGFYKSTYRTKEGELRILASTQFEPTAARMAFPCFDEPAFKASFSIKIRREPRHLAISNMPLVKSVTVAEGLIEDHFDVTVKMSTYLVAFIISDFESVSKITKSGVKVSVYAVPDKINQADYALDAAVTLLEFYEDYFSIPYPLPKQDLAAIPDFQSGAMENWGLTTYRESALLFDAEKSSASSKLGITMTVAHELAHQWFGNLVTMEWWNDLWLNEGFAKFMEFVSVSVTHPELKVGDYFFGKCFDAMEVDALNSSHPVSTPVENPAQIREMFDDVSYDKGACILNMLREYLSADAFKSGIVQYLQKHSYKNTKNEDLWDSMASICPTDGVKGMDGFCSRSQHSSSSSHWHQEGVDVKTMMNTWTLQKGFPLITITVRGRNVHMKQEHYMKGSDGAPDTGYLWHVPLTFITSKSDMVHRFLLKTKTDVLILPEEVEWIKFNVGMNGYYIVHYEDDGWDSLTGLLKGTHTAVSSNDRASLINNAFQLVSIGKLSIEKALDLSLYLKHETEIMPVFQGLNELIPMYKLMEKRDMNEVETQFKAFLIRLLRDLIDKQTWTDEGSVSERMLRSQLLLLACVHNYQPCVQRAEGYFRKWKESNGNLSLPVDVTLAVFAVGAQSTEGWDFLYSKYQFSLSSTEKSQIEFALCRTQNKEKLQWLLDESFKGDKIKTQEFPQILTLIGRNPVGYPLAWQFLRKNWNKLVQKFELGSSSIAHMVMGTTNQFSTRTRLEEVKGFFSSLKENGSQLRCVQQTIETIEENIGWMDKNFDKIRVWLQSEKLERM

Biological target: Endoplasmic reticulum aminopeptidase 1 (Homo sapiens) (UniProt Q9NZ08)
Experiment: inhibition of ERAP1 peptide trimming enzyme – biochemical, single point, plate reader, primary screen (AID 652197);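 note: 0% = neutral control wells and 100% = L-leucinethiol positive control wells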
Settings: recombinant ERAP1, Leu-AMC fluorescence, 60 min; at 10.7 µM; stronger effect = higher value

Structure (SMILES) | inhibition
CCC(=O)N(c1ccccc1)C1(COC)CCN(CCn2nnn(CC)c2=O)CC1 | inactive: -1.97%
CCC(=O)N(c1ccccc1)C1(COC)CCN(CCc2cccs2)CC1 | inactive: -7.64%
